Reference: patent US9611262B2, “Substituted 2-azabicycles and their use as orexin receptor modulators” (JANSSEN PHARMACEUTICA NV, priority 2014, dated 2017)

Protein sequences, listed by entry. Tags and fused reporters are not part of them.
UniProt O43613, whole entry: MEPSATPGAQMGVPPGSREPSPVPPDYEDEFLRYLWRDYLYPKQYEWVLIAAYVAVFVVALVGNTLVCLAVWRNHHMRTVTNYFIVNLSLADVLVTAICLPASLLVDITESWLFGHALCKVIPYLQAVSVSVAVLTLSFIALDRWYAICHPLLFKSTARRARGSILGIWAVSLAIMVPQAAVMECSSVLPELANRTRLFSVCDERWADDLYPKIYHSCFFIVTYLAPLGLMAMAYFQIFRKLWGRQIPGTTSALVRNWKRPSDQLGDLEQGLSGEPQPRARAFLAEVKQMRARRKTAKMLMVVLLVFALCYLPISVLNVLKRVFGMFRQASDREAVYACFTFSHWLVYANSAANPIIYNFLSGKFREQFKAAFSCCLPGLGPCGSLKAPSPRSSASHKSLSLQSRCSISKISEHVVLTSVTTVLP
UniProt O43614, whole entry: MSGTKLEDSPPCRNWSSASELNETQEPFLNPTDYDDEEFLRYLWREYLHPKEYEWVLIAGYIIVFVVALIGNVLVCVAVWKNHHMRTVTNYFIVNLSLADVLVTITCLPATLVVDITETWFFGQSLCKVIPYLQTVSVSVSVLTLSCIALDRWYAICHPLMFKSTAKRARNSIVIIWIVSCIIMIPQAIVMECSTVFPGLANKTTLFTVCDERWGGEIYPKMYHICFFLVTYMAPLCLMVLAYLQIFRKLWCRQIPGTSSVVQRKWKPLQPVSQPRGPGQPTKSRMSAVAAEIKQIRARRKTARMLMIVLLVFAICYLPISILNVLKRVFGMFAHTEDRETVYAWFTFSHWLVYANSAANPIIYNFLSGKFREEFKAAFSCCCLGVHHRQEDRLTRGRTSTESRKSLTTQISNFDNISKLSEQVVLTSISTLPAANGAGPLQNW

Legend:
human orexin 1 receptor = human orexin 1 receptor (Homo sapiens (Human), UniProt O43613); experiment: Human orexin 1 receptor radioligand binding (competitive); settings: CHO cells stably expressing human orexin 1 receptor; 4 nM radioligand; averages of 2-20 runs; read-out: hOX1 Ki
Outline: (§1)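 Competition binding used HEK293 cells expressing rat OX1 or CHO cells expressing human OX1, with 4 nM final [3H]-labelled thiazolyl-oxadiazolyl-pyrrolidinyl methanone radioligand in PBS. Compounds were tested at 7 concentrations (0.1 nM–10 μM) for 60 min at room temperature, then filtered; 10 μM almorexant defined nonspecific binding. Ki was derived from the one-site IC50 and the radioligand Kd.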

human orexin 2 receptor = human orexin 2 receptor (Homo sapiens (Human), UniProt O43614); experiment: Human orexin 2 receptor radioligand binding ([3H]-EMPA competition); settings: HEK293 stably expressing human orexin 2 receptor; 2 nM [3H]-EMPA; averages of 2-20 runs; read-out: hOX2 Ki
Experimental: The in vitro affinity of the compounds of the invention for the rat/human orexin 1 and human orexin 2 receptors was determined by competitive radioligand binding using [^3H](1-(5-(2-fluoro-phenyl)-2-methyl-thiazol-4-yl)-1-((S)-2-(5-phenyl-(1,3,4)oxadiazol-2-ylmethyl)-pyrrolidin-1-yl)-methanone) (Langmead et al., 2004) and [^3H]EMPA (n-ethyl-2[96-methoxy-pyridin-3-yl)-(toluene-2-sulfonyl)-amino]-N-pyridin-3-ylmethyl acetamide), respectively (Langmead et al., 2004, British Journal of Pharmacology 141:340-346; Malherbe et al., 2004, British Journal of Pharmacology 156:1326-41).
Data are analyzed using pc-Sandy macro and graphed on Graphpad Prism 5. For analysis, each concentration point is averaged from triplicate values and the averaged values are plotted on Graphpad Prism. The IC50 was determined by applying the following equation (GraphPad Prism 5.0, San Diego) for one site competition where X=log (concentration) and Y=specific binding. Top denotes the total [^3H]— (1-(5-(2-fluoro-phenyl)-2-methyl-thiazol-4-yl)-1-((S)-2-(5-phenyl-(1,3,4)oxadiazol-2-ylmethyl)-pyrrolidin-1-yl)-methanone) binding, bottom denotes the nonspecific [^3H]— (1-(5-(2-fluoro-phenyl)-2-methyl-thiazol-4-yl)-1-((S)-2-(5-phenyl-(1,3,4)oxadiazol-2-ylmethyl)-pyrrolidin-1-yl)-methanone) binding. Graphpad Prism calculates Ki value from IC50 and the pre-determined Kd values for [^3H]— (1-(5-(2-fluoro-phenyl)-2-methyl-thiazol-4-yl)-1-((S)-2-(5-phenyl-(1,3,4)oxadiazol-2-ylmethyl)-pyrrolidin-1-yl)-methanone) and [^3H]-EMPA. The Ki for each compound is then uploaded into 3DX. Each run comprises individual compounds in triplicate. The data in Table 1 and Table 2 represent averages from between 2-20 runs
Human Orexin 2 Receptor Radioligand Binding Studies
HEK293 stably expressing human orexin 2 receptor (Genebank accession number NM_001526) were grown to confluency in DMEM (Hyclone, cat # SH30022), 10% FBS, 1× Pen/Strep, 1× NaPyruvate, 10 mM HEPES, 600 μg/ml G418 media on 150 cm^2 tissue culture plates, washed with 5 mM EDTA in PBS (HyClone Dulbecco's Phosphate Buffered Saline 1× with Calcium and Magnesium, Cat # SH30264.01, hereafter referred to simply as PBS) and scraped into 50 ml tubes. After centrifugation (2K×G, 5 min at 4° C.), the supernatant was aspirated and the pellets frozen and stored at −80° C. Cells were resuspended in PBS in the presence of 1 tablet of protease inhibitor cocktail (Roche, Cat. #11836145001) per 50 mL. […] Compounds were solubilized in 100% DMSO (Acros Organics, Cat. #61042-1000) and tested over a range of 7 concentration (from 0.1 nM to 10 μM). The final concentration of DMSO in the reactions is equal to or less than 0.1%. Total and nonspecific binding was determined in the absence and presence of 10 μM almorexant. The total volume of each reaction is 200 μL (20 μL of diluted compounds, 80 μL of [^3H]-EMPA diluted in PBS and 100 μL of the cell suspension). Reactions were run for 60 min at room temperature and terminated by filtration through GF/C filter plates (PerkinElmer, Cat. #6005174) presoaked in 0.3% polyethylenimine using the cell harvester (PerkinElmer Filtermate). The plates were washed 3 times by aspirating 30 ml PBS through the plates. Plates were dried in 55° C. oven for 60 min, scintillation fluid was added, and the radioactivity was counted on a Topcount (Packard).

rat orexin 1 receptor = rat orexin 1 receptor (Rattus norvegicus, UniProt P56718); experiment: Rat orexin 1 receptor radioligand binding (competitive); settings: HEK293 cells stably expressing rat orexin 1 receptor; 4 nM radioligand; averages of 2-20 runs; read-out: rOX1 Ki
Outline: as §1

SMILES	Ki (human orexin 1 receptor) [nM]	Ki (human orexin 2 receptor) [nM]	Ki (rat orexin 1 receptor) [nM]
CC1C2CC(Oc3cnc(C(F)(F)F)cn3)C(C2)N1C(=O)c1ccccc1-c1ncccn1 (racemic) [Example 45]	18	6900	–
C[C@@H]1[C@H]2C[C@@H](Oc3ccc(C(F)(F)F)cn3)[C@H](C2)N1C(=O)c1ccc(F)cc1-n1nccn1 (relative stereo) [Example 28, (4-fluoro-2-(2H-1,2,3-triazol-2-yl)phenyl)((1S*,3R*,4R*,6R*)-3-methyl-6-((5-(trifluoromethyl)pyridin-2-yl)oxy)-2-azabicyclo[2.2.1]heptan-2-yl)methanone]	–	1300	–
CC1C2CC(Nc3cnc(C(F)(F)F)cn3)C(C2)N1C(=O)c1cccc(F)c1-c1ncccn1 (single isomer, unassigned) [Example 4, (R/S)-(3-fluoro-2-(pyrimidin-2-yl)phenyl)(3-methyl-6-((5-(trifluoromethyl)pyrazin-2-yl)amino)-2-azabicyclo[2.2.1]heptan-2-yl)methanone]	–	637	–
CC(C)CC1C2CC(Oc3ccc(C(F)(F)F)cn3)C(C2)N1C(=O)c1ccccc1-n1nccn1 (racemic) [Example 207, (R/S)-[2-isobutyl-5-[[5-(trifluoromethyl)-2-pyridyl]oxy]-3-azabicyclo[2.2.1]heptan-3-yl]-[2-(triazol-2-yl)phenyl]methanone]	–	3900	–
CC1C2CC(Nc3cnc(C(F)(F)F)cn3)C(C2)N1C(=O)c1cccc(F)c1-c1ncccn1 (single isomer, unassigned) [Example 67, (R/S)-(3-fluoro-2-(pyrimidin-2-yl)phenyl)(3-methyl-6-((5-(trifluoromethyl)pyrazin-2-yl)amino)-2-azabicyclo[2.2.1]heptan-2-yl)methanone]	–	567	–
C[C@@H]1[C@H]2C[C@@H](Oc3cnc4ccccc4n3)[C@H](C2)N1C(=O)c1cccc(F)c1-n1nccn1 (relative stereo) [Example 184, (3-fluoro-2-(2H-1,2,3-triazol-2-yl)phenyl)((1S*,3R*,4R*,6R*)-3-methyl-6-(quinoxalin-2-yloxy)-2-azabicyclo[2.2.1]heptan-2-yl)methanone]	–	208	–
C[C@@H]1[C@H]2C[C@@H](Oc3cnc(C(F)(F)F)cn3)[C@H](C2)N1C(=O)c1ccccc1-n1nccn1 (relative stereo) [Example 51, (2-(2H-1,2,3-triazol-2-yl)phenyl)((1S*,3R*,4R*,6R*)-3-methyl-6-((5-(trifluoromethyl)pyrazin-2-yl)oxy)-2-azabicyclo[2.2.1]heptan-2-yl)methanone]	24	2140	–
CCC1C2CC(Oc3ccc(C(F)(F)F)cn3)C(C2)N1C(=O)c1ccccc1-n1nccn1 (racemic) [Example 213, (R/S)-[2-ethyl-5-[[5-(trifluoromethyl)-2-pyridyl]oxy]-3-azabicyclo[2.2.1]heptan-3-yl]-[2-(triazol-2-yl)phenyl]methanone]	–	208	–
CC1C2CC(Oc3cnc(C(F)(F)F)cn3)C(C2)N1C(=O)c1ccccc1-n1nccn1 (racemic) [Example 43, (R/S)-(2-(2H-1,2,3-triazol-2-yl)phenyl)(3-methyl-6-((5-(trifluoromethyl)pyrazin-2-yl)oxy)-2-azabicyclo[2.2.1]heptan-2-yl)methanone]	13	5700	–
CC1C2CC(Oc3ccc(C(F)(F)F)cn3)C(C2)N1C(=O)c1cccc(F)c1-c1ncco1 (racemic) [Example 12, (R/S)-(3-fluoro-2-(oxazol-2-yl)phenyl)(3-methyl-6-((5-(trifluoromethyl)pyridin-2-yl)oxy)-2-azabicyclo[2.2.1]heptan-2-yl)methanone]	–	1100	–
C[C@@H]1[C@H]2C[C@@H](Oc3cnc(C(F)(F)F)cn3)[C@H](C2)N1C(=O)c1c(F)cccc1-n1nccn1 (relative stereo) [Example 55, (2-fluoro-6-(2H-1,2,3-triazol-2-yl)phenyl)((1S*,3R*,4R*,6R*)-3-methyl-6-((5-(trifluoromethyl)pyrazin-2-yl)oxy)-2-azabicyclo[2.2.1]heptan-2-yl)methanone]	20	3200	–
Cc1cnc(-n2nccn2)c(C(=O)N2[C@H](C)[C@H]3C[C@@H](Oc4ccc(C(F)(F)F)cn4)[C@@H]2C3)c1 (relative stereo) [Example 26, (5-methyl-2-(2H-1,2,3-triazol-2-yl)pyridin-3-yl)((1S*,3R*,4R*,6R*)-3-methyl-6-((5-(trifluoromethyl)pyridin-2-yl)oxy)-2-azabicyclo[2.2.1]heptan-2-yl)methanone]	6	4300	6
CCC1C2CC(Oc3ccc(C(F)(F)F)cn3)C(C2)N1C(=O)c1ccccc1-c1ncc(F)cn1 (racemic) [Example 218, (R/S)-[2-ethyl-5-[[5-(trifluoromethyl)-2-pyridyl]oxy]-3-azabicyclo[2.2.1]heptan-3-yl]-[2-(5-fluoropyrimidin-2-yl)phenyl]methanone]	9	526	9
COc1ccc(C(=O)N2[C@H](C)[C@H]3C[C@@H](Oc4ccc(C(F)(F)F)cn4)[C@@H]2C3)c(-n2nccn2)c1 (relative stereo) [Example 31, (4-methoxy-2-(2H-1,2,3-triazol-2-yl)phenyl)((1S*,3R*,4R*,6R*)-3-methyl-6-((5-(trifluoromethyl)pyridin-2-yl)oxy)-2-azabicyclo[2.2.1]heptan-2-yl)methanone]	–	2300	–
CCC1C2CC(Oc3ccc(C(F)(F)F)cn3)C(C2)N1C(=O)c1nc(C)ccc1-n1nccn1 (racemic) [Example 215, (R/S)-[2-ethyl-5-[[5-(trifluoromethyl)-2-pyridyl]oxy]-3-azabicyclo[2.2.1]heptan-3-yl]-[6-methyl-3-(triazol-2-yl)-2-pyridyl]methanone]	9	517	7
Cc1ccc(-c2ncccn2)c(C(=O)N2C(C)C3CC(Oc4cnc(C(F)(F)F)cn4)C2C3)n1 (racemic) [Example 44, (R/S)-(6-methyl-3-(pyrimidin-2-yl)pyridin-2-yl)(3-methyl-6-((5-(trifluoromethyl)pyrazin-2-yl)oxy)-2-azabicyclo[2.2.1]heptan-2-yl)methanone]	–	7700	–
Cc1cnc(C(=O)N2[C@H](C)[C@H]3C[C@@H](Oc4ccc(C(F)(F)F)cn4)[C@@H]2C3)c(-c2ncccn2)c1 (relative stereo) [Example 35, (5-methyl-3-(pyrimidin-2-yl)pyridin-2-yl)((1S*,3R*,4R*,6R*)-3-methyl-6-((5-(trifluoromethyl)pyridin-2-yl)oxy)-2-azabicyclo[2.2.1]heptan-2-yl)methanone]	–	4100	–
